The numbers were not newly measured in patent US10517933B2, “Method of treating androgen receptor negative prostate tumors and their metastases” (DREXEL UNIVERSITY, priority 2015, dated 2019), which cites them from elsewhere.

For data set [1], the target named is T1, IL1β (Homo sapiens, UniProt P01584). The settings on record: cited from earlier work.
Data set [2] has as its target T1, IL1β. The settings on record: cited from earlier work. This is another data set of the same source.

Turning to “XOMA-052: a potent anti-IL1β humanized neutralizing antibody”, in the data set with IL1β [1], the in vitro potency result is listed as “low picomolar range”. For the same substance, the “binding affinity for human IL1β” value with IL1β [2] is 300 femtomolar.
